The structures appear in SMILES notation. Where two headings read alike, the source gives them in different places.

By UniProt entry, the sequences of proteins in these tests, tags left out.
UniProt B2FPG1, entry or part of it: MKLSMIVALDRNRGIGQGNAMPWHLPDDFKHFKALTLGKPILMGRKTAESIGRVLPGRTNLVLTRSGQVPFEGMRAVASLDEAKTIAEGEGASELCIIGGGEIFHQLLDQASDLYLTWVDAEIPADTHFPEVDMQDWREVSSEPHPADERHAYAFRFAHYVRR

For this assay, the target named is S. maltophilia DHFR (Stenotrophomonas maltophilia, UniProt B2FPG1).

As to `CN(Cc1cnc2nc(N)nc(N)c2n1)c1ccc(C(=O)N[C@@H](CCC(=O)O)C(=O)O)cc1` [methotrexate], the Ki was determined as 0.018 nM. Further, the Ki (read-out: dissociation constant Ki, pH 8.0, fit to Eqn. 2) came out at 0.018 nM.

The record behind these values is patent US20070249545A1, “DIHYDROFOLATE REDUCTASE INHIBITION BY EPIGALLOCATECHIN GALLATE COMPOUNDS” (priority 2004, published 2007).
